{
  "source": "patent US20230137216A1",
  "about": "“Stabilization of Pharmaceutical Compositions Comprising Polysorbate” (LEK Pharmaceuticals d.d., priority 2020, published 2023)",
  "data": [
    {"assay": "Accelerated stability testing of PS80 HX2 (polysorbate content by mixed-mode chromatography with CAD)", "settings": "0.02% w/v PS80 HX2, 20 mM histidine buffer salt, pH 6.5, 50° C., 1 month", "description": "PS20 or PS80 obtained from different manufacturers (see Table 1) was dissolved in 20 mM aqueous buffer at pH 5.5 or 6.5 in a glass vial to a final concentration of 0.02% (w/v) polysorbate. The buffer salts used in the histidine buffers investigated were histidine chloride (HisCl) and various further histidine buffer salts (see below, all obtained from Sigma-Aldrich (now Merck KgaA)).\nDegradation mechanisms of the polysorbates were explored using 20 mM imidazole chloride and 20 mM alanine chloride buffer salts. Also, HisCl buffer salt comprising solutions were prepared with the additional excipients of mannitol or trehalose (both Sigma-Aldrich) to determine the influence of sugars and their derivatives on polysorbate degradation. Finally, two different mAbs were used as the active agent that each contained 10 mg/mL mAb, 0.02% PS80 HX2 and 20 mM HisCl buffer salt at pH 6.5. The therapeutic protein solutions were provided by Lek d.d. (Mengeš, Slovenia). In all cases, the starting point samples were collected immediately and stored at −80° C. The vials were then placed into a 50° C. incubator for up to 2 months, with samples collected at 1 month and further samples in some cases at 2 months. All of these samples were stored at −80° C. for subsequent analysis.\nThe polysorbate contents were analysed and quantified using a method based on mixed-mode chromatography, as mixed anion exchange and reversed phase, combined with a charged aerosol detector (CAD). The external standard approach was used for quantification of the surfactants. Chromatographic analysis was carried out using the method of Hewitt et al. (Hewitt, D. et al. J. Chromatogr. A 1218, 2138-2145 (2011).\nAnalytes were separated using a Waters Oasis MAX column (30 μm particle size, 2.1 mm×20 mm), column temperature 30° C., flow rate 1 ml/min and a total run time of 10 min. The injection volume was 10 μL. Initial conditions were set at 90% solvent A (2% formic acid in purified water) and 10% solvent B (2% formic acid in isopropanol). Solvent B was increased to 20% in the first minute and held for 2.4 min. […]", "values": [
      {"substance": "histidine adipate", "degradation of polysorbate 80 HX2": "major to almost complete degradation"},
      {"substance": "histidine aspartate", "degradation of polysorbate 80 HX2": "major to almost complete degradation"},
      {"substance": "histidine glutamate", "degradation of polysorbate 80 HX2": "major to almost complete degradation"}
    ]}
  ]
}
